Assay: Visible toxicity observed in the B16F10 mouse model
Assay type: in vivo
Conditions: C57BL/6 mice bearing B16F10 tumors
Description: 1×10^5 B16F10 cells were implanted subcutaneously for each 7-9 week old syngeneic C57BL/6 mouse at mid-dorsal region. Tumors were allowed to grow to palpable size, i.e., 70-120 cu mm before randomization and assigning groups (n=8) as designed. The mice were administered test compounds i.e., rIL-2, rIL-2-polymer conjugates or vehicle at different dose concentrations and dose regimes as indicated in Tables 5-9. The body weights and tumor volumes were measured every two or three days. The end point for this study was the time to reach median tumor volume of 2000 cu mm for a given group.
Tumor growth inhibition following the administration of rIL-2 and rIL-2-polymer conjugates at different administration schemes are provided in FIGS. 5-9.

Substance: IL-2: Recombinant IL-2 corresponding to the amino acid sequence of FIG. 1, expressed in E. coli
- Visible toxicity: lethargy and body chill symptoms

From patent US20220401561A1, “PROTEIN-MACROMOLECULE CONJUGATES AND METHODS OF USE THEREOF” (Beijing Xuanyi PharmaSciences Co., Ltd., priority 2019, published 2022)
